The values that follow come from patent publication US7829297B2, “Treatment of cancers expressing p95 ErbB2” (GlaxoSmithKline LLC, priority 2003, dated 2010).

For test [1], the system named is p95^ErbB2. The experiment in a line: Western blot of p95ErbB2 in BT474 cells. It is filed as cell-based, human. Conditions: 24 hours.
Test [2] concerns p95^ErbB2. The experiment in a line: p95ErbB2 in BT474 tumor xenografts (Western blot). It is filed as in vivo, mice. From the text:
BT474 tumor xenografts were established in CD-1 nude mice.

Test [3] relates to MAPK-Erk1/2 and PI3K-AKT pathways, cyclin D1/2. As to the kind of experiment: Downstream signaling in BT474 tumor xenografts (Western blot). The conditions noted are these: GW572016 or trastuzumab (10 mg/kg). It is filed as in vivo, mice. How it is done: Equal amounts of protein from tumor xenograft whole cell extracts were separated by SDS-PAGE and steady state protein levels of total and phosphorylated forms Erk1/2 and AKT were assessed by Western blot. Cyclin D1/2 steady state protein levels were also determined. Steady state protein levels of actin confirmed equal loading of protein.
On the technique in general: A western blot detects proteins with antibodies after separation by electrophoresis.

Test [4] has as its system ErbB2 ECD shedding, breast adenocarcinoma cell lines. Conditions: Molina et al. 2001; cited from earlier work.

For the substance “trastuzumab: humanized anti-ErbB2 monoclonal antibody that binds the extracellular domain of ErbB2 [reference compound]”, in the test on p95^ErbB2 [1] (0.5 μM GW572016 or 10 μg/ml trastuzumab), the “tyrosine phosphorylation of p95ErbB2 (anti-pTyr mAb)” value is on record as “did not have a similar inhibitory effect”. Besides, the “p95ErbB2 steady state protein levels (anti-ErbB2 peptide 1243-1255 mAb)” value in the test with p95^ErbB2 [1] (10 μg/ml) was “reduced”. Moreover, the “steady state protein levels of total p95ErbB2” value in the test with p95^ErbB2 [2] (GW572016 100 mg/kg/dose PO or trastuzumab IP) is “unchanged”. The “Y1248 phosphorylation in p95ErbB2” value with p95^ErbB2 [2] (GW572016 100 mg/kg/dose or trastuzumab) is recorded as “did not appear to have any marked effect”. Further, in test [3], the “cyclin D steady state protein levels” value is reported as “had little effect”, the “p-AKT steady state protein levels” value is “had little effect” and the “p-Erk1/2 steady state protein levels” value is given as “had little effect”. For the same substance, in test [4], the “ECD shedding from two breast adenocarcinoma cell lines” value is reported as “reduced ECD shedding”.
